Test results from PubChem BioAssay AID1346983 (Tox21, 2019).
This is a selection; strong and weak results do not stand in their true shares. Records with an inconclusive call do not appear. Active and inactive are the calls of the source. Calls come from the whole dose curve; as a rule, active = well fitted activation curve with a large enough effect in the repeat runs; inconclusive = weak or mixed curves; inactive = no such curve, though single readings can be large or run the other way.

Chains of the proteins cited; added tags and fusions are not shown. Lines headed by an entry give the natural chain unless they say otherwise; changes in a name come on top.
UniProt Q9R1A7: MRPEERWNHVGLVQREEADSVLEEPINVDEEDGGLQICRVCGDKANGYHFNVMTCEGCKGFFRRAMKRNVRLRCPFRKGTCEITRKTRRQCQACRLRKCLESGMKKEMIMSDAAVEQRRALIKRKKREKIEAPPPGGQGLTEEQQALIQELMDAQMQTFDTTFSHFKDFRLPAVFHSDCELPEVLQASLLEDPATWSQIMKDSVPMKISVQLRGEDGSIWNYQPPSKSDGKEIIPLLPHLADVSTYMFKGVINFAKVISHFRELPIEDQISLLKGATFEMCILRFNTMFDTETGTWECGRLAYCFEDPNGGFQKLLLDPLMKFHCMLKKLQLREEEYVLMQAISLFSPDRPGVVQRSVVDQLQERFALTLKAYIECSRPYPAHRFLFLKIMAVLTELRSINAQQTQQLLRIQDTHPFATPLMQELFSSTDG

target: Nuclear receptor subfamily 1 group I member 2 (Rattus norvegicus) (UniProt Q9R1A7); assay: Rat pregnane X receptor (rPXR) activation by small molecules, qHTS assay; conditions: rPXR luciferase reporter cells, One-Glo luminescence, 24 h; active compounds read high; note: nearly all actives have a fitted effect of over 20% in size
Excerpt: National Center for Advancing Translational Sciences [NCATS] NIH Chemical Genomics Center [NCGC] U.S. Environmental Protection Agency [EPA] National Institutes of Environmental Health Sciences [NIEHS] National Toxicology Program [NTP] Assay overview: The Pregnane X receptor (PXR), a ligand activated nuclear receptor plays a critical role in the regulation of genes involved in drug metabolism and transporters. PXR binds xenobiotics and when compounds interact with PXR produces enhanced expression of CYP3A genes. In humans PXR activation and CYP3A4 induction can be problematic due to their interactions with co-medicated drugs and decrease their efficacy or increase their own metabolism. However, there are known species-specific differences with regard to PXR activation that should be taken into account when animal PXR data are extrapolated to humans. A cell based rat PXR (rPXR) assay (developed by Puracyp, Inc., CA) was used to assess the activation of rPXR.
Assay Protocol Summary: rPXR cells were dispensed at 2,000 per well in 5uL of assay medium into white, solid-bottom 1536-well plates using a Multidrop Combi dispenser (Thermo Scientific). […] Then 5ul One-Glo assay reagent (Promega) was added to each plate by a Flying Reagent Dispenser (FRD, Aurora Discovery) and following 30 min incubation at room temperature, luciferase activity was quantified on a ViewLux plate reader (Perkin Elmer).
% is set by controls: 0 for no effect and ±100 for the full control effect.

Row | Compound | max activation
1 | CN(C(=O)Cc1ccccc1)[C@H]1CC[C@@]2(CCCO2)C[C@@H]1N1CCCC1 | inactive: 1.06%
2 | O=C(OC1CN2CCC1CC2)c1ccccc1 (configuration not stated) | inactive: 1.05%
